{"source": "ChEMBL document CHEMBL5154925", "about": "“Design and Optimization of Thienopyrimidine Derivatives as Potent and Selective PI3Kδ Inhibitors for the Treatment of B-Cell Malignancies” (J Med Chem, 2022)", "key": {"[1]": {"biological_target": "T1, Phosphatidylinositol 4,5-bisphosphate 3-kinase catalytic subunit delta isoform (Homo sapiens, UniProt O00329)", "T1 sequence (O00329 whole entry)": "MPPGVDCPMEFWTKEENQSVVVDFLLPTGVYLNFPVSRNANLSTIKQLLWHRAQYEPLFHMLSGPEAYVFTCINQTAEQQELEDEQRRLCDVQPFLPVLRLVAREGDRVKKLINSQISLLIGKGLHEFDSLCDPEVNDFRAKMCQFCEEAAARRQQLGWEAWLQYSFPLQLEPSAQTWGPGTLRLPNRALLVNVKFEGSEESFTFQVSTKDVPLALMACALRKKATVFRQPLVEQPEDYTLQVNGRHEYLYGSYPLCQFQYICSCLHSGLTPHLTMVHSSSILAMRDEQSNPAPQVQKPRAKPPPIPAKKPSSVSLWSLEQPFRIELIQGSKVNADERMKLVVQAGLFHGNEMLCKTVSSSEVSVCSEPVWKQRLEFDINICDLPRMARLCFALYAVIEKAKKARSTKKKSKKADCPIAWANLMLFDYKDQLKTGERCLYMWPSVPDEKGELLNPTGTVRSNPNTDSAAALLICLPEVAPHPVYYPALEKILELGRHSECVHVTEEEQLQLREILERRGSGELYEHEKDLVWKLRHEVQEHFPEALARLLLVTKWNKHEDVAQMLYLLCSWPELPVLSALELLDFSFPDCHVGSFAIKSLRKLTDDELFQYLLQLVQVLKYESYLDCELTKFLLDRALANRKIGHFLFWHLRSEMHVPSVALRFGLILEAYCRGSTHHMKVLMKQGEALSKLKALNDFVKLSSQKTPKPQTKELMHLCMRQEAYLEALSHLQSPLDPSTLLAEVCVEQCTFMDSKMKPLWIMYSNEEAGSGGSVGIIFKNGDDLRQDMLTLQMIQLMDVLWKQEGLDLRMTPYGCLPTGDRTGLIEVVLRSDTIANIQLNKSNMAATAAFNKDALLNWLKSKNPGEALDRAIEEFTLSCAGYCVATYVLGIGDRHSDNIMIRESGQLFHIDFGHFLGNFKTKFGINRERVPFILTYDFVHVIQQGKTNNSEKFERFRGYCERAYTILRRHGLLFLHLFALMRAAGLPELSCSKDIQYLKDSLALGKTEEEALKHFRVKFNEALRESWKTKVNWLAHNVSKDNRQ", "experiment": "Inhibition of PI3Kdelta (unknown origin) using PIP2 as substrate measured after 1 hr in presence of ATP by ADP-glo luminescence assay"}, "[2]": {"biological_target": "T1, Phosphatidylinositol 4,5-bisphosphate 3-kinase catalytic subunit delta isoform", "experiment": "Inhibition of PI3Kdelta in IgM stimulated human Raji cells incubated for 10 mins by AlphaLISA assay", "assay_type": "cell-based"}}, "data": [{"molecule": "CCC(=O)N1CC[C@H](Nc2ncnc3c2CN(c2cnc(OC)c(C(F)(F)F)c2)CC3)C1", "note": "[LENIOLISIB]", "values": [{"measurement": "IC50", "setting": "[1]", "result": 1.5, "unit": "nM"}, {"measurement": "IC50", "setting": "[2]", "result": 62.8, "unit": "nM"}]}]}
